Experimental data from PubChem BioAssay AID1521 (The Scripps Research Institute Molecular Screening Center, 2009).
The entries are a selection whose mix differs from that of the whole data set. Active and inactive are the calls of the source.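 How the source made its calls: active means mean inhibition above the hit cutoff derived in the earlier primary screen (cut at about 25% in these data); inactive means the rest.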

Experiment: viability loss in Ba/F3 EpoR-JAK2V617F cells, confirmation, JAK2V617F inhibitor project, cell-based, luminescence, triplicate (AID 1521);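 further: 0% = DMSO-treated cells and 100% = JAK inhibitor I control wells; higher means lower luminescence from reduced cell ATP and viability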
Settings: CellTiter-Glo luminescence, at 5.6 µM, hits give high values

CC(=O)NC(SC(=S)N(CC(C)C)CC(C)C)C(Cl)(Cl)Cl (stereo unspecified)
inhibition: inactive: -13.2%
